Test results: ChEMBL document CHEMBL1133734, “Synthesis and evaluation of nitroheterocyclic phosphoramidates as hypoxia-selective alkylating agents” (2000)

Assay: Ratio of lethal conc. under aerobic to hypoxic condition in HT-29 cells
Format: functional
Method in brief: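 HT-29 hypoxic selectivity. Aerobic and hypoxic LC99 values (concentration cutting clonogenic survival by 2 log units) come from the log-linear portion of each survival curve after 4-h drug treatment, assayed in duplicate. The ratio is aerobic LC99 over hypoxic LC99.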

Row | Compound | Ratio
1 | NP(=O)(OCc1ccc([N+](=O)[O-])s1)N(CCBr)CCBr (configuration not stated) | 7.8
2 | NP(=O)(OCc1ccc([N+](=O)[O-])o1)N(CCBr)CCBr (configuration not stated) | 8.2
